# Compound activity deposited in PubChem by National Center for Advancing Translational Sciences (NCATS).
# miR-21 reporter: raises the signal of a miR-21 reporter; Potency, µM (doses to about 38.3 µM), inactives show top-dose reporter change, positive = more light; HeLa miR-21 FLuc reporter, luciferase, 48 h; AID 2288; 340,000 tested, under 10 active; active = well fitted rising curve with a large enough effect; inconclusive = small, poorly fitted or top-dose-only effect; inactive = no such curve, though single readings can be large or run the other way;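 further: % of control where 0% means no effect; miR-21 action dims this reporter so a rising signal means less miR-21 action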
#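 Luminescence from a firefly luciferase reporter carrying a miR-21 binding site downstream, stably expressed under a CMV promoter in HeLa cells that make miR-21 endogenously, reports miRNA modulation after 48 h compound exposure up to approximately 40uM final.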
# Nrf2 block: Nrf2 pathway inhibition; Potency, µM (highest dose often 46 µM), inactives show at the highest dose activity change, negative = inhibition, most hits filed as inhibitors; AID 504444; A549 ARE-Fluc reporter, luciferase luminescence, 18-24 h; actives 2.1% (n = 360,000); also: potency is read from the fitted curve at half-maximal effect; % is scaled to controls: 0 for no effect and ±100 for the full control effect; nearly all actives have a fitted effect of over 60% in size
#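 Quantitative HTS in A549 cells stably bearing an antioxidant response element-firefly luciferase construct. Inhibition of Nrf2-driven transcription was scored by luminescence after 18-24 h of compound exposure at 37 °C.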
# A549 viability: counter-screen for Nrf2 inhibitors: cytotoxicity in A549 cells. A549 ARE-Fluc cells, CellTiter-Fluor viability, 18-24 h. Potency, µM (doses to about 46 µM), inactives show at the highest dose activity change, negative = cytotoxicity, usual class: inhibitors. actives 0.16% (n = 390,000). AID 504648; also: potency is read from the fitted curve at half-maximal effect; % is scaled to controls: 0 for no effect and ±100 for the full control effect
#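 Cytotoxicity counterscreen: CellTiter-Fluor fluorescence was measured in A549 ARE_Fluc cells after 18-24 h of compound exposure in a concentration series. The subsequent BugLite luminescent read reports ARE-luciferase activity.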
# Nrf2 activator: Nrf2 pathway activation | AREc32 ARE-luciferase reporter (MCF7-derived line), luminescence, 24 h | actives 0.31% (n = 410,000) | Potency, µM (series often up to 46.1 µM), for the others: top-dose activation, most hits filed as activators; also: potency is read from the fitted curve at half-maximal effect; % of control where 0% means no effect; nearly all actives have a fitted effect of over 65% in size
#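 AREc32 cells carrying an ARE-driven firefly luciferase, 1000 cells/well in OPTI-MEM with 5% FBS, dosed after overnight attachment and incubated 24 hr at 37 deg C. Steady-Glo luminescence read after 30 min at RT.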
# Mito fusion act: inhibitors of mitochondrial division or activators of mitochondrial fusion; S. cerevisiae fusion-defective mutant growth rescue, CellTiterGlo 48 h; Potency, µM (series often up to 46.1 µM), without a hit: at the highest dose growth rescue (activation), most hits filed as activators; actives 0.23% (n = 320,000); AID 485298; also: potency is read from the fitted curve at half-maximal effect; % of control where 0% means no effect; nearly all actives have a fitted effect of over 45% in size
#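 Compounds are tested for their ability to restore growth of mitochondrial fusion-defective yeast strains at non-permissive 37C in YPEG medium over 48 hours. Viability is quantified by luciferase luminescence.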
# * hit, by the source's call; ? = inconclusive; . = no result given; ! = a repeat was not active; [ ] = dose if it differs, or a comment. Rows were chosen to be rich in hits. Some 2.3% of all compounds tested hit in one or more screens of this group. Calls follow the shape of the dose curve; as a rule, active = well fitted curve in the direction sought with a large enough effect; inconclusive = small, poorly fitted or top-dose-only effect, or another doubt; inactive = no such curve, though single readings can be large; an effect the other way counts as inactive or inconclusive.
entry | Structure | miR-21 reporter | Nrf2 block | A549 viability | Nrf2 activator | Mito fusion act
1 | CC1CCCN(c2nc(NCc3ccco3)nc(N)c2[N+](=O)[O-])C1 (stereo not drawn) | 4% | 18µM* | 1% | 20%[9.22 µM] | 26%
2 | Cc1ccc(Nc2nc(N)c([N+](=O)[O-])c(N3CCCC(C)C3)n2)cc1C (stereo not drawn) | -7% | ? | -2% | 0% | -33%
3 | Cc1ccc(Nc2ncnc3nc[nH]c23)cc1 | . | ? | -2% | . | .
4 | COc1cc(C2Nc3ccccc3-c3cc(C)nn32)ccc1O (stereo not drawn) | -17% | 28% | 8% | 5% | .
5 | Cc1cc2n(n1)C(c1ccc(O)cc1)Nc1ccccc1-2 (stereo not drawn) | -1% | 18µM* | . | 1% | 0%
6 | Cc1cc2c(s1)c1cnn(Cc3cccc(F)c3F)c(=O)c1n2C | . | 0% | 1% | . | .
7 | COc1ccc(NC(=O)c2ccco2)c([N+](=O)[O-])c1 | -62% | 3% | -14% | 12% | -3%
8 | COC(=O)c1ccccc1NC(=O)c1ccco1 | -4% | . | 7% | 24% | 22%
9 | COC(=O)c1sccc1NC(=O)c1cccc(F)c1 | . | 7% | -6% | 10µM* | .
10 | COC(=O)c1sccc1NC(=O)c1c(F)c(F)c(F)c(F)c1F | . | -11% | 1% | ? | .
11 | COC(=O)c1sccc1NC(=O)c1ccccc1[N+](=O)[O-] | -11% | -1% | -2% | 11µM* | ?
12 | COC(=O)c1sccc1NC(=O)c1ccco1 | 0% | -1% | 1% | 11µM* | 2%
13 | Cc1ccc(NC(=O)c2ccco2)c([N+](=O)[O-])c1 | -53% | 93% | -1% | 11µM* | 5%
14 | COC(=O)c1sccc1NC(=O)c1ccccc1Br | . | -11% | -5% | ? | .
15 | CCN(CC)Cc1c(NC(=O)c2ccc(OC)cc2)sc2c1CCCC2 | -12% | ? | -10% | 17% | .
16 | COc1ccc(S(=O)(=O)NCCc2csc(-c3ccc(F)cc3)n2)cc1F | 16% | . | -15% | 6% | .
17 | COc1ccc(C(=O)N(Cc2ccccc2)Cc2ccccc2)c(O)c1 | . | ? | -3% | . | .
18 | Nc1[nH]n2c(=O)c3c(nc2c1N=Nc1ccccc1)CCCC3 | -1% | . | 13µM* | 0% | 2%
19 | S=c1[nH]nc(Cc2cccs2)n1-c1ccccc1Cl | 0% | 16µM* | 6% | -1% | -2%
20 | C#CCN1C(C)=C(C(=O)OC)C(c2cccc([N+](=O)[O-])c2)C(C(=O)OCC)=C1C (stereo not drawn) | . | ? | -19% | 14% | 4.6µM*!
21 | O=C(Nc1ccc(F)c(Cl)c1)C1CCN(S(=O)(=O)c2ccc3[nH]c(=O)ccc3c2)CC1 | 20% | . | -4% | 5% | .
22 | O=C(NC1CCCC1)c1sc(=S)n2c1[nH]c(=O)c1ccccc12 | -7% | 16µM* | ? | 2% | -6%
23 | CCCOc1ccccc1C1CC(=O)Nc2cc3c(cc21)OCCO3 (stereo not drawn) | 29% | 21µM* | ? | 4% | ?
24 | CC(C)Oc1cccc(C2CC(=O)Nc3cc4c(cc32)OCO4)c1 (stereo not drawn) | ? | 16µM* | -19% | 1% | .
25 | CCOc1c(Br)cc(C2CC(=O)Nc3cc4c(cc32)OCO4)cc1OC (stereo not drawn) | ? | 21µM* | 1% | 0% | .
26 | COc1cccc(C2CC(=O)Nc3cc4c(cc32)OCO4)c1OC(C)C (stereo not drawn) | ? | ? | -13% | 0% | .
27 | CC(C)Oc1ccccc1C1CC(=O)Nc2cc3c(cc21)OCO3 (stereo not drawn) | ? | 7.3µM* | ? | -1% | 9%
28 | Cc1cc2c(s1)c1cnn(Cc3ccc(F)c(Cl)c3)c(=O)c1n2C | . | 14% | -1% | . | .
29 | CC1(C)CC(=O)C2=C(C1)NC(SCC(=O)Nc1ccccc1)=C(C#N)C2c1ccco1 (stereo not drawn) | 1% | ? | -23% | 5% | 4%
30 | Cc1ccc(C(=O)CSC2=C(C#N)C(c3ccco3)C3=C(CC(C)(C)CC3=O)N2)cc1 (stereo not drawn) | 19% | 16µM* | ? | 6% | 23%

# Marked active in Nrf2 activator (from the list above):
no.	compound	miR-21 reporter	Nrf2 block	Nrf2 activator
9	COC(=O)c1sccc1NC(=O)c1cccc(F)c1	.	7%	10µM*
11	COC(=O)c1sccc1NC(=O)c1ccccc1[N+](=O)[O-]	-11%	-1%	11µM*
12	COC(=O)c1sccc1NC(=O)c1ccco1	0%	-1%	11µM*
13	Cc1ccc(NC(=O)c2ccco2)c([N+](=O)[O-])c1	-53%	93%	11µM*

# Returning to the listing with the 2 entries that preceded the break.
entry | Structure | miR-21 reporter | Nrf2 block | A549 viability | Nrf2 activator | Mito fusion act
29 | CC1(C)CC(=O)C2=C(C1)NC(SCC(=O)Nc1ccccc1)=C(C#N)C2c1ccco1 (stereo not drawn) | 1% | ? | -23% | 5% | 4%
30 | Cc1ccc(C(=O)CSC2=C(C#N)C(c3ccco3)C3=C(CC(C)(C)CC3=O)N2)cc1 (stereo not drawn) | 19% | 16µM* | ? | 6% | 23%
31 | Cc1ccc(C)c(Nc2nc3nonc3nc2N2CCOCC2)c1 | -4% | 12% | 1% | 0% | -2%
32 | Cc1ccc(C)c(Nc2nc3nonc3nc2Nc2cccc(C)c2C)c1 | ? | 5.8µM* | ? | 1% | .
33 | CCOC(=O)c1cccc(NC(=O)c2ccc(NC(=O)C3CCCO3)cc2)c1 (stereo not drawn) | 2% | 12µM* | -29% | 1% | -3%
34 | CCOC(=O)N1CCC(Nc2ncnc3c2cnn3-c2ccccc2)CC1 | -15% | 16µM* | -11% | 3% | 7%
35 | CCOc1ccccc1C1CC(=O)NC(C)=C1C(=O)OCc1ccc(C)cc1 (stereo not drawn) | 6% | ? | 0% | 8% | .
36 | CCN1C(=O)c2ccccc2S(=O)(=O)c2ccc(C(=O)NCc3ccc(C)cc3)cc21 | 1% | ? | 9% | 0% | .
37 | Cc1ccc2occ(CC(=O)Nc3ccc(S(=O)(=O)N4CCCC(C)C4)cc3)c2c1 (stereo not drawn) | 17% | 21µM* | -25% | 0% | .
38 | COc1ccc(-c2ccc(C(=O)Nc3cccc(C(F)(F)F)c3)c3occc23)c(C)c1 | . | . | . | 4% | .
39 | COc1ccc(-c2cc(OC(=O)c3ccc(F)cc3)c3c(C)oc(C)c3c(=O)c2)cc1OC | 0% | 18% | -1% | 6% | .
40 | CC1CCN(C(=O)CN2C(=O)C(=O)c3ccccc32)CC1 | -3% | 3% | 1% | 0% | 3%
41 | CC1CCN(C(=O)CN2C(=O)c3cccc4cccc(c34)C2=O)CC1 | -6% | 2% | -2% | 11µM* | -3%
42 | COc1ccc(CCNC(=O)C(=O)NCC(c2cccs2)S(=O)(=O)c2ccc(F)cc2)cc1 (stereo not drawn) | ? | . | -3% | 4% | .
43 | COc1ccc(NC(=O)C2CCC(N3C(=O)C4C5C=CC(C5)C4C3=O)CC2)cc1 (stereo not drawn) | -3% | -9% | -3% | 0% | 1%
44 | CC(=O)Nc1ccc(NC(=O)C2CCC(N3C(=O)C4C5C=CC(C6CC56)C4C3=O)CC2)cc1 (stereo not drawn) | -1% | 26µM* | -17% | 0% | 7%
45 | O=C(Nc1ccc(Cc2ccncc2)cc1)C1CCC(N2C(=O)C3C4C=CC(C5CC45)C3C2=O)CC1 (stereo not drawn) | 6% | 18µM* | ? | 0% | 3%
46 | COc1cc(-c2nnc3sc(C4CCCCC4)nn23)cc(OC)c1OC | 8% | 13µM* | 0% | 0% | 10%
47 | O=C1NC(=O)/C(=C/c2ccc3nccnc3c2)S1 | . | . | . | . | 9.2µM*
48 | CCCNC(=O)N1[C@H](c2ccc(C)s2)[C@@H](C)C(=O)[C@@H](C)[C@@H]1c1ccc(C)s1 | -12% | ? | 9% | 4% | .
